Columns and labels:
[1] = system: hERG (Potassium voltage-gated channel subfamily H member 2, Homo sapiens); assay: Displacement of [35S]MK-0499 from human hERG potassium channel at 10 uM
[2] = system: hERG (Potassium voltage-gated channel subfamily H member 2, Homo sapiens); assay: Displacement of [35S]MK-0499 from human hERG potassium channel at 1 uM

CC(C)N1C(=O)[C@H](NC(=O)[C@@H](Cc2ccc(F)cc2)NC(=O)OC(C)(C)C)CN(CC2CC2)c2ccccc21
inhibition [1]: 29%

CC(C)(C)OC(=O)N[C@H](Cc1ccccc1OC(F)(F)F)C(=O)N[C@@H]1CN(CC2CC2)c2ccccc2N(CC(F)(F)F)C1=O
inhibition [1]: 13%

CC(C)N1C(=O)[C@H](NC(=O)[C@@H](Cc2ccccc2C(F)(F)F)NC(=O)OC(C)(C)C)CN(CC2CC2)c2ccccc21
inhibition [1]: 21%

CC(C)(C)OC(=O)N[C@H](Cc1ccc(F)cc1)C(=O)N[C@@H]1CN(CC2CC2)c2ccccc2N(CC(F)(F)F)C1=O
inhibition [1]: 18%

CC(C)(C)OC(=O)N[C@H](Cc1ccccc1)C(=O)N[C@@H]1CN(CC2CC2)c2ccccc2N(CC(F)(F)F)C1=O
inhibition [1]: 24%

CN1C(=O)[C@H](NC(=O)[C@@H](Cc2ccccc2F)NC(=O)OC(C)(C)C)CN(CC2CC2)c2ccccc21
inhibition [2]: 1% | inhibition [1]: 45%

From ChEMBL document CHEMBL1141526, “3-Amino-1,5-benzodiazepinones: potent, state-dependent sodium channel blockers with anti-epileptic activity” (Bioorg Med Chem Lett, 2008)
